Read-outs that look alike come from different tables or passages of the source.
Legend:
[1] = Determination of the stability of KIFGSLAFL and KIFGSLAFL acetate (purity by HPLC on storage); format: physicochemical; conditions: 25° C., RH 50%; for stability, compared in words: 10 days, samples 3 and 4 versus samples 1 and 2, sample 1 versus samples 2 and 5; for purity of sample by high-performance liquid chromatography: sterile condition
Description: The condition for detecting the purity of target peptide by the analytical high-performance liquid chromatography was as follows: high-performance liquid chromatograph: Chuangxin TongHeng LC300, stationary phase: C18-bonded silica gel (250×4.6 mm, 5 μm), mobile phase: the mixed liquor of sodium dihydrogen phosphate solution 0.1 mol/L (adjusted the pH value of phosphoric acid to 3.0) and acetonitrile (with the volume ratio of 7:3), with the flow velocity of lmL/min and the detection wavelength of 230 nm. The elution time for target peptide was 10 min, approximately.
Studied the stability of the following samples under the sterile condition at 25° C. and RH 50%: Sample 1 was the amorphous solid product of embodiment 5. Sample 2 was the solution of embodiment 4, which was diluted to approximately 1 mg/mL with dimethyl sulfoxide and filtered through the filter membrane with the aperture of 0.2 microns. Sample 3 was the solid product of embodiment 3. Sample 4 was the solid product of embodiment 3, which was dissolved in dimethyl sulfoxide, diluted to approximately 1 mg/mL and filtered through the filter membrane with the aperture of 0.2 microns. Sample 5 was the solid product of embodiment 6. The purity of each sample was detected by high-performance liquid chromatography, and the results were as follows: […]

[2] = water for injection of 25° C., constant temperature shaker

| Substance | stability, compared in words [1] | purity of sample by high-performance liquid chromatography ([1]; Day 0) [%] | purity of sample by high-performance liquid chromatography ([1]; Day 5) [%] | purity of sample by high-performance liquid chromatography ([1]; Day 10) [%] | dissolving condition (dissolved completely / incompletely) ([2]; water 300 times) | dissolving time ([2]; water 300 times) | dissolving condition (dissolved completely / incompletely) ([2]; water 800 times) | dissolving time ([2]; water 800 times) |
| --- | --- | --- | --- | --- | --- | --- | --- | --- |
| KIFGSLAFL [Sample 3] | obviously inferior | 98.1 | 97.6 | 97.2 | incompletely) | >30 min (dissolved | incompletely) | >30 min (dissolved |
| KIFGSLAFL [Sample 4] | obviously inferior | 98.1 | 96.5 | 94.6 |  |  |  |  |
| KIFGSLAFL acetate [Sample 2] |  | 99.6 | 98.9 | 98.3 |  |  |  |  |
| KIFGSLAFL.H2SO4 [Sample 5] |  | 99.2 | 98.7 | 98.0 | incompletely) | >30 min (dissolved | incompletely) | >30 min (dissolved |

Reference: patent US20160229891A1, “SALT OF POLYPEPTIDE VACCINE, PREPARATION METHOD THEREFOR, AND PHARMACEUTICAL PREPARATION COMPRISING SAID SALT” (SHENZHEN SALUBRIS PHARMACEUTICALS CO. LTD, priority 2013, published 2016)
